Experimental data: patent US10065972B2, “Bicyclic or tricyclic heterocyclic compound” (MITSUBISHI TANABE PHARMA CORPORATION, priority 2014, dated 2018)

Chains of the proteins cited; added tags and fusions are not shown. Residues count along the entry.
UniProt Q8N5Z0, 30-425: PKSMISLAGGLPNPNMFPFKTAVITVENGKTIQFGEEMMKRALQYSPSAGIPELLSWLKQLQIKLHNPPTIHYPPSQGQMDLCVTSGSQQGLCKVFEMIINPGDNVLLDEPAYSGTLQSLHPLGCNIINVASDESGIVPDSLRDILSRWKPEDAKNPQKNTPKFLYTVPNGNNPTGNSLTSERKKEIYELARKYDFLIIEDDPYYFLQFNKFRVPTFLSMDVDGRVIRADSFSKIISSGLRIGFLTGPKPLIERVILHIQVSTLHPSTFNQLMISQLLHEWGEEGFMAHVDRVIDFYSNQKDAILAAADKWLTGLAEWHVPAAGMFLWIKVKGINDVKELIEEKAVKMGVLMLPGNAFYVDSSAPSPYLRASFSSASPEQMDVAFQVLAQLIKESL

Molecular target: human recombinant KAT-II (Homo sapiens (Human), UniProt Q8N5Z0)
Assay: KAT-II inhibitory test
Type: biochemical
Details: 3.0 μmol/L kynurenine, 37° C., 1 hr, pH 8.0; kynurenic acid quantified by HPLC
Procedure: The compounds described in the above-mentioned Examples were used for the KAT-II inhibitory test.
Preparation of Human Recombinant KAT-II
Human recombinant KAT-II was prepared as follows.
His tag and maltose binding protein tag were added to the N-terminal of a gene encoding human KAT-II (Genbank accession number: AF481738.1), and the obtained gene was incorporated into pET32 (Merck Nihon Millipore), which is an Escherichia coli expression vector. Human recombinant KAT-II produced by BL21(DE3) Escherichia coli (Merck Nihon Millipore, 69450) transformed using the plasmid was purified using an amylose resin column (New England Biolabs, #800-21 L).
The inhibitory action of the test compound on human recombinant KAT-II was determined by the following method.
To a reaction mixture (45 μL) containing 3.0 μmol/L kynurenine, 10 μmol/L pyridoxal phosphate, 2.0 ng/μL human recombinant KAT-II, and 150 mmol/L tris(hydroxymethyl)aminomethane-acetate buffer (pH 8.0) was added a 10% dimethyl sulfoxide solution (5 μL) of each test compound prepared, and the mixture was reacted at 37° C. for 1 hr. After the reaction, 50% trichloroacetic acid (5 μL) was added to terminate the reaction.
The resultant kynurenic acid was quantified as follows by high performance liquid chromatography. An enzyme reaction mixture was separated by an octadecylsilane reversed-phase column (SC-50DS, Eicom Corporation; mobile phase: 250 mmol/L zinc acetate, 50 mmol/L sodium acetate, and 5.0% acetonitrile (pH 6.2)) incubated at 30° C., and kynurenic acid was quantified using a fluorescence detector (RF-20Axs, Shimadzu Corporation) at excitation wavelength 354 nm, detection wavelength 460 nm. The analytical curve was drawn every time by an external standard method. Each test compound was tested by dual measurement at each concentration. The kynurenic acid level in the presence of a test compound at each concentration was converted into % relative to kynurenic acid resulting from a reaction with an enzyme alone as 100%, and the obtained values were fitted to S-curve to determine IC50.

SMILES | IC50 [nM]
Cn1c(-c2ccccc2)nc2sc(N3CCC[C@@H]3C(=O)NCc3ccccc3)nc2c1=O [Example 178, (R)-N-benzyl-1-(6-methyl-7-oxo-5-phenyl-6,7-dihydro[1,3]thiazolo[5,4-d]pyrimidin-2-yl)pyrrolidine-2-carboxamide] | 12
[2H]C([2H])(NC(=O)[C@H]1CCCN1c1nc2c(=O)n(C)c(-c3ccccc3)nc2s1)c1ccccc1 [Example 265, (R)-N-[dideuterio(phenyl)methyl]-1-(6-methyl-7-oxo-5-phenyl-6,7-dihydro[1,3]thiazolo[5,4-d]pyrimidin-2-yl)pyrrolidine-2-carboxamide] | 5.4
CC(C)(F)c1nc2sc(N3CCC[C@@H]3C(=O)NCc3ccccc3)nc2c(=O)[nH]1 [Example 482, (R)-N-benzyl-1-[5-(2-fluoropropan-2-yl)-7-oxo-6,7-dihydro[1,3]thiazolo[5,4-d]pyrimidin-2-yl]pyrrolidine-2-carboxamide] | 9.7
[2H]C([2H])(NC(=O)[C@H]1CCCN1c1nc2c(=O)n(C([2H])([2H])[2H])c(-c3ccccc3)nc2s1)c1ccccc1 [Example 560, N-[dideuterio(phenyl)methyl]-1-[7-oxo-5-phenyl-6-(trideuteriomethyl)-6,7-dihydro[1,3]thiazolo[5,4-d]pyrimidin-2-yl]pyrrolidine-2-carboxamide] | 11
Cn1ccn2c(=O)c3nc(N4CCC[C@@H]4C(=O)NCc4ccccc4)sc3nc12 [Example 603, (R)-N-benzyl-1-(5-methyl-9-oxo-5,9-dihydroimidazo[1,2-a][1,3]thiazolo[5,4-d]pyrimidin-2-yl)pyrrolidine-2-carboxamide] | 4.9
